{"source": "patent US10213418B2", "about": "“Therapeutic uses of berberine formulations” (TWi Biotechnology, Inc., priority 2013, dated 2019)", "origin": "cited, not measured here", "details": "patients on therapy; cited from earlier work", "data": [{"compound": "CC(=O)Nc1cccc(-n2c(=O)n(C3CC3)c(=O)c3c(Nc4ccc(I)cc4F)n(C)c(=O)c(C)c32)c1", "note": "[trametinib]", "values": [{"measurement": "papulopustular rash reported", "result": "80 % of patients"}]}]}
